Source: patent US8269015B2, “4-azetidinyl-1-heteroaryl-cyclohexane antagonists of CCR2” (Janssen Pharmaceutica N.V., priority 2009, dated 2012)

What follows are compounds tested against T1, CCR2 (Homo sapiens, UniProt P41597) (assay: MCP-1 Receptor Binding Assay in THP-1 Cells (125I labeled MCP-1)).
T1 construct: host or cells: THP-1 (human monocytic cell line)
T1 sequence (P41597 1-360 isoform P41597-2): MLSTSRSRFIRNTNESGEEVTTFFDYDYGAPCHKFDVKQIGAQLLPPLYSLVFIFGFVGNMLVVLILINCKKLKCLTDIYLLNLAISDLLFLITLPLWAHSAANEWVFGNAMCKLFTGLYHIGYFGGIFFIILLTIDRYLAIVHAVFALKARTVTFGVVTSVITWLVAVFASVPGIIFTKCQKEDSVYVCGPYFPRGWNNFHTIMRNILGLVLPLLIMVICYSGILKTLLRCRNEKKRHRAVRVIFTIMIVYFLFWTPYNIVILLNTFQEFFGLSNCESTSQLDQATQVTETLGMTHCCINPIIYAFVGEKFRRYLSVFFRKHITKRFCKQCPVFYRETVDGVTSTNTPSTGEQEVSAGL
Experimental: Compounds of the invention were subjected to various representative biological tests. […] MCP-1 Receptor Binding Assay in THP-1 Cells
Human monocytic cell line THP-1 cells were obtained from American Type Culture Collection (Manassas, Va., USA). […] The cell density was maintained […].
1 μM cold MCP-1 was used for nonspecific binding.
With `Nc1cccnc1C1CCC(N2CC(NC(=O)CNC(=O)c3cccc(C(F)(F)F)c3)C2)CC1` (stereo not drawn) [Example 20, N-({1-[4-(3-Amino-pyridin-2-yl)-cyclohexyl]-azetidin-3-ylcarbamoyl}-methyl)-3-trifluoromethyl-benzamide] the IC50 was 0.043 µM.
Work on `O=C(CNC(=O)c1cccc(C(F)(F)F)c1)NC1CN(C2CCC(c3cnccn3)CC2)C1` (single isomer, unassigned) [Example 35a, N-{[1-(4-Pyrazin-2-yl-cyclohexyl)-azetidin-3-ylcarbamoyl]-methyl}-3-trifluoromethyl-benzamide] yielded an IC50 of 0.044 µM.
In the case of `CN(C)c1ncc(C2CCC(N3CC(NC(=O)CNC(=O)c4cccc(C(F)(F)F)c4)C3)CC2)cn1` (single isomer, unassigned) [Example 36a, N-({1-[4-(2-Dimethylamino-pyrimidin-5-yl)-cyclohexyl]-azetidin-3-ylcarbamoyl}-methyl)-3-trifluoromethyl-benzamide], the IC50 is reported as 0.031 µM.
